Chains of the proteins cited; added tags and fusions are not shown. Lines headed by an entry give the natural chain unless they say otherwise; changes in a name come on top.
UniProt Q9P289: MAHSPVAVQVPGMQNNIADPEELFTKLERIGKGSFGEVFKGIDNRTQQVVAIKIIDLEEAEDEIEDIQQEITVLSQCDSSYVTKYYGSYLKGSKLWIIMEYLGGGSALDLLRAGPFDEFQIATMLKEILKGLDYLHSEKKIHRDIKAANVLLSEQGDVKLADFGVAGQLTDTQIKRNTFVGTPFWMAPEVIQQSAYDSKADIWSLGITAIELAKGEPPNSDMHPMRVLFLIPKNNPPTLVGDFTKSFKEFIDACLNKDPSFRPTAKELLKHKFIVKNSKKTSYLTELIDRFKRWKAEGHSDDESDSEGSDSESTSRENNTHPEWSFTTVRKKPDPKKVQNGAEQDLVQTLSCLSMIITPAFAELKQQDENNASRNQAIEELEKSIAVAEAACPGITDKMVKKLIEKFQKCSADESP

According to publication doi:10.1101/2023.03.24.534094v2 (biorxiv, 2023):

Target: MST4 (Homo sapiens, UniProt Q9P289)
Assay: biochemical
Conditions: read-out: dTm MST4

**Q.** For `CN[C@@H]1C[C@H]2O[C@@](C)([C@@H]1OC)n1c3ccccc3c3c4c(c5c6ccccc6n2c5c31)C(=O)NC4` [Staurosporine], which ΔTm at 10 µM is on record?
**A.** 7.3 °C
